In article PMC6844113:

Test system: Nc1ncnc2c1ncn2[C@@H]1O[C@H](COP(=O)(O)OP(=O)(O)OP(=O)(O)O)[C@@H](O)[C@H]1O
Experiment: purified protein
Details: Mg2+ ATP binding to gyrase subunit B

Work on “E. coli DNA gyrase subunit B (Escherichia coli K-12)” yielded a Km of 330 ± 140 µM.
